From patent US20260130879A1 (IMMUNIC AG, priority 2023, published 2026) come the findings set out here.

Amino acid sequences for entries named in this document (tags omitted). Residues count along the entry.
UniProt P43354, 360-595 limits assumed: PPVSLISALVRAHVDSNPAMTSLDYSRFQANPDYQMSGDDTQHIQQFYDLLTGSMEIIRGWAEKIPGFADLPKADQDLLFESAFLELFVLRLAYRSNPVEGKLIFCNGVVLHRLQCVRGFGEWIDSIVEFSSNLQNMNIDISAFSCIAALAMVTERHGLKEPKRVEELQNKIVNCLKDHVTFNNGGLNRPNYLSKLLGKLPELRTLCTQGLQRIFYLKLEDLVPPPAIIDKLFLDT

This assay addresses human Nurr1 (Homo sapiens, UniProt P43354). As to the kind of experiment: Hybrid Gal4-Nurr1 reporter gene assay in HEK293T cells. In general terms: In a reporter assay the amount or activity of a reporter protein is the signal.

For orientation: EC50 means the concentration needed to bring the measured effect to its halfway point. The low end stands for an effect from little substance, the high end for a need for much substance.

Consider `[2H]C([2H])([2H])Oc1cccc(-c2ccc(NC(=O)C3=C(C(=O)O)CCC3)c(F)c2)c1` [2/1], for which the “Nurr1 agonism max. fold activation” value is recorded as 2.61 ± 0.07 fold.

Regarding `[2H]c1cc([2H])c(-c2ccc(NC(=O)C3=C(C(=O)O)CCC3)c(F)c2)c([2H])c1OC([2H])([2H])[2H]` [2/3], the “Nurr1 agonism max. fold activation (range)” value is “+++ (+++: ≥3-fold)”. On the same count and under the same terms, as for `[2H]c1cc(-c2cccc(OC([2H])([2H])[2H])c2)cc(F)c1NC(=O)C1=C(C(=O)O)CCC1` [2/12], the entry is “+++ (+++: ≥3-fold)”. On to `COc1cccc(-c2ccc(NC(=O)C3=C(C(=O)O)CCC3)c(F)c2)c1` [Example 1, vidofludimus], for which the “Nurr1 agonism max. fold activation” value is recorded as 3.1 ± 0.4 fold. With `C#CCOc1cccc(-c2ccc(NC(=O)C3=C(C(=O)O)CCC3)c(F)c2)c1` [Example 3, 2-((3-Fluoro-3′-(prop-2-yn-1-yloxy)-[1,1′-biphenyl]-4-yl)carbamoyl)cyclopent-1-ene-1-carboxylic acid], a half-maximal response (EC50) required 0.23 ± 0.03 µM.
